Source: US8551988B2, “Benzimidazole derivatives: preparation and pharmaceutical applications” (Mei Pharma, Inc., priority 2003, dated 2013)

Sequences of proteins named here, by UniProt entry; tags and fusion partners are left off. A change or cut given only in a name is not applied to a line headed by its entry.
UniProt Q9BY41: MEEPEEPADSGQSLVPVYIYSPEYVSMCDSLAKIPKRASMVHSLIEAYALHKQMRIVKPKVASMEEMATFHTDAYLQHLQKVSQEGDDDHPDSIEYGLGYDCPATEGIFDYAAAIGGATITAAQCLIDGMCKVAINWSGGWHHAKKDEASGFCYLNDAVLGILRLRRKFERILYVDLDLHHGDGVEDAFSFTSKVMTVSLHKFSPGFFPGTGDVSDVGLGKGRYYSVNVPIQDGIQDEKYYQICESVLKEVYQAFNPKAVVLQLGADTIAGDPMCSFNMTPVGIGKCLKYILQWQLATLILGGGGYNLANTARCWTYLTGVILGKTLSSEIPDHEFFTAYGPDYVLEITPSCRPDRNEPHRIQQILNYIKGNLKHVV

Target: HDAC8 enzyme (recombinant GST-HDAC8) (Homo sapiens (Human), UniProt Q9BY41)
Experiment: In vitro HDAC assay (BIOMOL fluorescent-based HDAC activity assay), HDAC8
Format: biochemical

Work on `O=C(/C=C/c1ccc2c(c1)nc(CCc1ccccc1)n2CCc1ccccc1)NO` [Compound 26, N-Hydroxy-3-(1,2-Diphenethyl-1H-benzimidazol-5-yl]-acrylamide] yielded an IC50 of 1000 nM.
